This passage reports IC50 results from patent publication US8507562B2, “Synthesis of (1)-beta-elemene, (-)-beta-elemenal, (-)-beta-elemenol, (-)-beta-elemene fluoride and their analogues, intermediates, and composition and uses thereof” (HYWE Pharmaceuticals, Inc., priority 2004, dated 2013).

The assay has as its system Colon Cancer Cells HCT-15. The assay can be described thus: MTS cell viability assay. As to conditions: HCT-15, 4 hr; combinations with Elemene 160 μg/ml, n = 8.

As to `O=c1[nH]cc(F)c(=O)[nH]1` [Lr 5-Fu], the IC50 (as a rule, the point on the concentration scale where inhibition reaches its midpoint) turned out to be 93.0 ± 9.11 µg/mL.
